PMC6205950, “4-Chlorophenol Oxidation Depends on the Activation of an AraC-Type Transcriptional Regulator, CphR, in Rhodococcus sp. Strain YH-5B” (Frontiers in Microbiology, 2018)

Test system: O=[N+]([O-])c1ccc(O)cc1
Assay: purified protein
Conditions: 200 μM NADH, 25 μM FAD, 50 mM phosphate pH 7.5

Substance: two-component 4-CP monooxygenase (H6-CphA1 and H6-CphA2) (Rhodococcus sp. (in: high G+C Gram-positive bacteria))
- Km: 12.1 ± 1.8 µM
